Data: patent US20140206748A1, “COMPOSITIONS AND METHODS RELATED TO PROSTATE CANCER” (Regents of the University of Minnesota, priority 2013, published 2014)

System: androgen receptor (AR)
Experiment: Quantitative RT-PCR of AR target genes (PSA, hK2, TMPRSS2) in 22Rv1 cells

CNC(=O)c1ccc(N2C(=S)N(c3ccc(C#N)c(C(F)(F)F)c3)C(=O)C2(C)C)cc1F [enzalutamide]
androgen-mediated activation of the AR target genes PSA and hK2 (1 nM DHT, 10 μM bicalutamide or 1 μM enzalutamide): able to antagonize
constitutive, androgen-independent expression of PSA and hK2 (castrate conditions): not by manipulations that block full-length AR
